# Permeability data for macrocyclic peptides

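Conditions beyond the assay type are not listed; see the original paper. Other peptides of the study may be missing here. Peptides that the database sets to -10, its floor, are left out.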

PAMPA is the parallel artificial membrane permeability assay, which has no cells and reads passive diffusion.
Permeability is given as log10 of P in cm/s; higher (less negative) is more permeable.

CC(=O)N1CCC[C@@H]1C(=O)N(C)[C@@H](CC(C)C)C(=O)N[C@@H]1C(=O)N(C)[C@H](CC(C)C)C(=O)N(C)[C@@H](CC(C)C)C(=O)N[C@@H](CC(C)C)C(=O)N(C)[C@@H](C)C(=O)N[C@@H](CC(C)C)C(=O)N2CCC[C@H]2C(=O)O[C@@H]1C is reported with PAMPA -5.79 (log10 cm/s). CC(=O)N1CCC[C@H]1C(=O)N(C)[C@@H](CC(C)C)C(=O)N[C@@H]1C(=O)N[C@@H](CC(C)C)C(=O)N(C)[C@@H](CC(C)C)C(=O)N(C)[C@H](CC(C)C)C(=O)N[C@H](C)C(=O)N[C@@H](CC(C)C)C(=O)N2CCC[C@@H]2C(=O)O[C@@H]1C is reported with PAMPA -5.53 (log10 cm/s). For CC(=O)N1CCC[C@@H]1C(=O)N(C)[C@H](CC(C)C)C(=O)N[C@@H]1C(=O)N(C)[C@@H](CC(C)C)C(=O)N(C)[C@@H](CC(C)C)C(=O)N[C@H](CC(C)C)C(=O)N[C@H](C)C(=O)N[C@H](CC(C)C)C(=O)N2CCC[C@H]2C(=O)O[C@@H]1C the data give PAMPA -6.47 (log10 cm/s). CC(=O)N1CCC[C@H]1C(=O)N(C)[C@@H](CC(C)C)C(=O)N[C@@H]1C(=O)N[C@@H](CC(C)C)C(=O)N[C@@H](CC(C)C)C(=O)N(C)[C@@H](CC(C)C)C(=O)N(C)[C@@H](C)C(=O)N[C@H](CC(C)C)C(=O)N2CCC[C@H]2C(=O)O[C@@H]1C has PAMPA -6.58 (log10 cm/s). CC(=O)N1CCC[C@@H]1C(=O)N(C)[C@@H](CC(C)C)C(=O)N[C@@H]1C(=O)N(C)[C@H](CC(C)C)C(=O)N[C@H](CC(C)C)C(=O)N(C)[C@@H](CC(C)C)C(=O)N(C)[C@@H](C)C(=O)N[C@H](CC(C)C)C(=O)N2CCC[C@@H]2C(=O)O[C@@H]1C is reported with PAMPA -5.18 (log10 cm/s).

Listed for CC(=O)N1CCC[C@H]1C(=O)N(C)[C@@H](CC(C)C)C(=O)N[C@@H]1C(=O)N(C)[C@@H](CC(C)C)C(=O)N(C)[C@@H](CC(C)C)C(=O)N[C@@H](CC(C)C)C(=O)N(C)[C@@H](C)C(=O)N[C@H](CC(C)C)C(=O)N2CCC[C@@H]2C(=O)O[C@@H]1C: PAMPA -5.68 (log10 cm/s). CC(=O)N1CCC[C@@H]1C(=O)N(C)[C@H](CC(C)C)C(=O)N[C@@H]1C(=O)N[C@H](CC(C)C)C(=O)N(C)[C@H](CC(C)C)C(=O)N(C)[C@@H](CC(C)C)C(=O)N(C)[C@@H](C)C(=O)N[C@@H](CC(C)C)C(=O)N2CCC[C@@H]2C(=O)O[C@@H]1C has PAMPA -5.64 (log10 cm/s). CC(=O)N1CCC[C@H]1C(=O)N(C)[C@@H](CC(C)C)C(=O)N[C@@H]1C(=O)N(C)[C@@H](CC(C)C)C(=O)N(C)[C@@H](CC(C)C)C(=O)N[C@H](CC(C)C)C(=O)N(C)[C@@H](C)C(=O)N[C@H](CC(C)C)C(=O)N2CCC[C@@H]2C(=O)O[C@@H]1C is reported with PAMPA -5.96 (log10 cm/s). CC(=O)N1CCC[C@H]1C(=O)N(C)[C@@H](CC(C)C)C(=O)N[C@@H]1C(=O)N[C@H](CC(C)C)C(=O)N[C@H](CC(C)C)C(=O)N(C)[C@@H](CC(C)C)C(=O)N(C)[C@H](C)C(=O)N[C@@H](CC(C)C)C(=O)N2CCC[C@H]2C(=O)O[C@@H]1C has PAMPA -6.08 (log10 cm/s). CC(=O)N1CCC[C@@H]1C(=O)N(C)[C@H](CC(C)C)C(=O)N[C@@H]1C(=O)N[C@H](CC(C)C)C(=O)N[C@H](CC(C)C)C(=O)N(C)[C@@H](CC(C)C)C(=O)N[C@@H](C)C(=O)N[C@H](CC(C)C)C(=O)N2CCC[C@H]2C(=O)O[C@@H]1C has PAMPA -6.79 (log10 cm/s).

CC(=O)N1CCC[C@H]1C(=O)N(C)[C@H](CC(C)C)C(=O)N[C@@H]1C(=O)N[C@H](CC(C)C)C(=O)N[C@@H](CC(C)C)C(=O)N(C)[C@@H](CC(C)C)C(=O)N[C@@H](C)C(=O)N[C@@H](CC(C)C)C(=O)N2CCC[C@H]2C(=O)O[C@@H]1C is reported with PAMPA -5.19 (log10 cm/s). CC(=O)N1CCC[C@@H]1C(=O)N(C)[C@@H](CC(C)C)C(=O)N[C@@H]1C(=O)N[C@@H](CC(C)C)C(=O)N[C@@H](CC(C)C)C(=O)N(C)[C@@H](CC(C)C)C(=O)N(C)[C@H](C)C(=O)N[C@@H](CC(C)C)C(=O)N2CCC[C@H]2C(=O)O[C@@H]1C is reported with PAMPA -5.84 (log10 cm/s). CC(=O)N1CCC[C@@H]1C(=O)N(C)[C@@H](CC(C)C)C(=O)N[C@@H]1C(=O)N(C)[C@H](CC(C)C)C(=O)N(C)[C@H](CC(C)C)C(=O)N[C@H](CC(C)C)C(=O)N(C)[C@H](C)C(=O)N[C@H](CC(C)C)C(=O)N2CCC[C@H]2C(=O)O[C@@H]1C is reported with PAMPA -5.40 (log10 cm/s). Listed for CC(=O)N1CCC[C@@H]1C(=O)N(C)[C@H](CC(C)C)C(=O)N[C@@H]1C(=O)N(C)[C@@H](CC(C)C)C(=O)N[C@@H](CC(C)C)C(=O)N[C@@H](CC(C)C)C(=O)N(C)[C@@H](C)C(=O)N[C@H](CC(C)C)C(=O)N2CCC[C@H]2C(=O)O[C@@H]1C: PAMPA -5.97 (log10 cm/s). Listed for CC(=O)N1CCC[C@H]1C(=O)N[C@@H]1C(=O)N[C@H](CC(C)C)C(=O)N(C)[C@@H](CC(C)C)C(=O)N(C)[C@H](CC(C)C)C(=O)N[C@H](CC(C)C)C(=O)N(C)[C@H](C)C(=O)N[C@@H](CC(C)C)C(=O)N2CCC[C@@H]2C(=O)O[C@@H]1C: PAMPA -4.92 (log10 cm/s).

For CC(=O)N1CCC[C@H]1C(=O)N[C@@H]1C(=O)N(C)[C@H](CC(C)C)C(=O)N[C@@H](CC(C)C)C(=O)N[C@@H](CC(C)C)C(=O)N[C@@H](CC(C)C)C(=O)N[C@H](C)C(=O)N[C@@H](CC(C)C)C(=O)N2CCC[C@@H]2C(=O)O[C@@H]1C the data give PAMPA -7.32 (log10 cm/s). Listed for CC(=O)N1CCC[C@@H]1C(=O)N(C)[C@@H](CC(C)C)C(=O)N[C@@H]1C(=O)N[C@H](CC(C)C)C(=O)N[C@H](CC(C)C)C(=O)N(C)[C@@H](CC(C)C)C(=O)N[C@@H](C)C(=O)N[C@H](CC(C)C)C(=O)N2CCC[C@H]2C(=O)O[C@@H]1C: PAMPA -6.06 (log10 cm/s). CC(=O)N1CCC[C@@H]1C(=O)N(C)[C@H](CC(C)C)C(=O)N[C@@H]1C(=O)N[C@H](CC(C)C)C(=O)N[C@H](CC(C)C)C(=O)N(C)[C@H](CC(C)C)C(=O)N[C@H](C)C(=O)N[C@H](CC(C)C)C(=O)N2CCC[C@H]2C(=O)O[C@@H]1C has PAMPA -5.70 (log10 cm/s). The entry for CC(=O)N1CCC[C@@H]1C(=O)N(C)[C@@H](CC(C)C)C(=O)N[C@@H]1C(=O)N(C)[C@@H](CC(C)C)C(=O)N[C@@H](CC(C)C)C(=O)N[C@@H](CC(C)C)C(=O)N[C@@H](C)C(=O)N[C@H](CC(C)C)C(=O)N2CCC[C@H]2C(=O)O[C@@H]1C lists PAMPA -7.40 (log10 cm/s). Listed for CC(=O)N1CCC[C@H]1C(=O)N(C)[C@@H](CC(C)C)C(=O)N[C@@H]1C(=O)N[C@@H](CC(C)C)C(=O)N[C@@H](CC(C)C)C(=O)N[C@@H](CC(C)C)C(=O)N(C)[C@@H](C)C(=O)N[C@@H](CC(C)C)C(=O)N2CCC[C@H]2C(=O)O[C@@H]1C: PAMPA -6.82 (log10 cm/s).

For CC(=O)N1CCC[C@@H]1C(=O)N(C)[C@H](CC(C)C)C(=O)N[C@@H]1C(=O)N(C)[C@H](CC(C)C)C(=O)N(C)[C@@H](CC(C)C)C(=O)N[C@@H](CC(C)C)C(=O)N(C)[C@H](C)C(=O)N[C@H](CC(C)C)C(=O)N2CCC[C@@H]2C(=O)O[C@@H]1C the data give PAMPA -5.92 (log10 cm/s). For CC(=O)N1CCC[C@H]1C(=O)N(C)[C@@H](CC(C)C)C(=O)N[C@@H]1C(=O)N(C)[C@H](CC(C)C)C(=O)N[C@@H](CC(C)C)C(=O)N(C)[C@H](CC(C)C)C(=O)N(C)[C@@H](C)C(=O)N[C@H](CC(C)C)C(=O)N2CCC[C@@H]2C(=O)O[C@@H]1C the data give PAMPA -6.04 (log10 cm/s).

The first 2 entries again:

CC(=O)N1CCC[C@@H]1C(=O)N(C)[C@@H](CC(C)C)C(=O)N[C@@H]1C(=O)N(C)[C@H](CC(C)C)C(=O)N(C)[C@@H](CC(C)C)C(=O)N[C@@H](CC(C)C)C(=O)N(C)[C@@H](C)C(=O)N[C@@H](CC(C)C)C(=O)N2CCC[C@H]2C(=O)O[C@@H]1C has PAMPA -5.79 (log10 cm/s).
CC(=O)N1CCC[C@H]1C(=O)N(C)[C@@H](CC(C)C)C(=O)N[C@@H]1C(=O)N[C@@H](CC(C)C)C(=O)N(C)[C@@H](CC(C)C)C(=O)N(C)[C@H](CC(C)C)C(=O)N[C@H](C)C(=O)N[C@@H](CC(C)C)C(=O)N2CCC[C@@H]2C(=O)O[C@@H]1C has PAMPA -5.53 (log10 cm/s).

Collected by the curators of CycPeptMPDB (Li et al. 2023) from Kelly et al. 2021, doi:10.1021/jacs.0c06115.